Measured values taken from PubChem BioAssay AID2288 (National Center for Advancing Translational Sciences (NCATS), 2010).
This is a selection; strong and weak results do not stand in their true shares. Activity calls are given as the source filed them. Calls follow the shape of the dose curve; as a rule, active = well fitted curve in the direction sought with a large enough effect; inconclusive = small, poorly fitted or top-dose-only effect, or another doubt; inactive = no such curve, though single readings can be large or run the other way.

Experiment: qHTS Assay for Modulators of miRNAs and/orActivators of miR-21;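 also: % of control where 0% means no effect; miR-21 action dims this reporter so a rising signal means less miR-21 action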
Details: HeLa miR-21 FLuc reporter, luciferase, 48 h; at 38.3 µM (top of the series)

Structure (SMILES) | activity change, positive = activation
COc1ccc(N/C(=N/P(=O)(N2CCOCC2)N2CCOCC2)N2CCOCC2)cc1 | inactive: -1.69%
COc1cc(I)ccc1[As](=O)(O)O | inactive: 0.966%
COc1ccc2nc(NP(=O)(c3ccccc3)c3ccccc3)sc2c1 | inactive: 0.484%
Cc1cc(=O)[nH]c(N[N+](=O)[O-])n1 | inactive: 0.13%
CCN(CC)CCCOC(=O)C(O)(c1ccccc1)c1ccccc1 | inactive: -1.87%
O=C(OC1CN2CCC1CC2)C12CC3CC(CC(C3)C1)C2 (stereo not given) | inactive: -14.2%
Cc1c2c(nc3ccccc13)SC(C(Cl)Cl)C2 (stereo not given) | inactive: -25.6%
Cc1cc(C)cc(OP(C)(N)=O)c1 (stereo not given) | inactive: 0.376%
COc1ccc(OP(C)(=O)Nc2cccc(F)c2)cc1 (stereo not given) | inactive: -1.48%
O=[N+]([O-])c1cc([N+](=O)[O-])c(-c2ccn[nH]2)s1 | inactive: 9.5%
COc1ccccc1OP(C)(=O)Nc1cc(Cl)ccc1C (stereo not given) | inactive: -4.31%
CC(C)NC(=O)NP(=O)(Oc1ccccc1)Oc1ccccc1 | inactive: -1.6%
CCN(CC)C(=S)SC(NC=O)C(Cl)(Cl)Cl (stereo not given) | inactive: -0.266%
Cc1ccc(NP(C)(=O)Oc2ccccc2)c(C)c1 (stereo not given) | inactive: -8.17%
CC(C)c1ccc(OP(=O)(Nc2ccccn2)Oc2ccccc2F)cc1 (stereo not given) | inactive: 8.12%
COc1ccccc1OP(C)(=O)Nc1ccc(C)cc1 (stereo not given) | inactive: -5.63%
ClCCSc1nnc(-c2cccnc2)o1 | inactive: -30.2%
CCOC(=O)c1ccc(NP(C)(=O)Oc2ccccc2)cc1 (stereo not given) | inactive: -5.8%
Cc1ccc2nc3c(c(C)c2c1)CC(C(Cl)Cl)S3 (stereo not given) | inactive: -50.7%
Cc1cccc(C)c1OP(C)(N)=O (stereo not given) | inactive: -1.23%
Cc1ccc(OP(=O)(Nc2ccc([N+](=O)[O-])cn2)Oc2ccc(C)cc2)cc1 | inactive: -4.04%
CC(C)(C)c1ccc(OP(C)(=O)Nc2ccc(SC(F)(F)F)cc2)cc1 (stereo not given) | inactive: -8.79%

Structure (SMILES) | activity change, positive = activation
C[As](=O)(O)c1cccc(C(=O)O)c1 | inactive: -0.549%
O=[As](O)(c1ccc(O)cc1)c1ccccc1O | inactive: -0.843%
O=[N+]([O-])c1ccc(Nc2ccc(Oc3ccc([N+](=O)[O-])cc3[N+](=O)[O-])cc2)c([N+](=O)[O-])c1 | inactive: -1.1%
CP(=O)(Nc1ccccc1Br)Oc1ccccc1 (stereo not given) | inactive: -2.72%
COc1ccccc1OP(C)(=O)Nc1ccccc1 (stereo not given) | inactive: -0.838%
O=P(Nc1ccccn1)(c1cccc2ccccc12)c1cccc2ccccc12 | inactive: -9.41%
Cc1cc(SC(NC=O)C(Cl)(Cl)Cl)ncn1 (stereo not given) | inactive: -3.23%
CCOC(=O)Nc1cccc([As](=O)(O)O)c1 | inactive: -1.49%
CP(=S)(Nn1cnnc1)Oc1ccccc1 (stereo not given) | inactive: -0.315%
Cc1cc(SC(NC(=O)c2ccccc2)C(Cl)(Cl)Cl)nc(C(C)C)n1 (stereo not given) | inactive: -2.21%
CCCCOc1ccc(C(=O)NCC2(N3CCCCC3)CCCCC2)cc1OC | inactive: 0.393%
CCOC(=O)Nc1ccc([As](=O)(O)O)c(O)c1 | inactive: 2.12%
CP(=O)(Nc1ccccn1)Oc1ccc(Cl)cc1 (stereo not given) | inactive: -6.31%
CCC(C)N(CC(C)C)C(=S)SC(NC(C)=O)C(Cl)(Cl)Cl (stereo not given) | inactive: 29.7%
CCOC(=O)c1ccc(NP(C)(=O)Oc2ccc(OC)cc2)cc1 (stereo not given) | inactive: -9.75%
CCOC(=O)c1ccc(NC(=O)C(C)(CCl)SC)cc1 (stereo not given) | inactive: -38.1%
CCOP(C)(=S)SCC(=O)NC(C)C(=O)O (stereo not given) | inactive: -0.229%
O=C(OC1CN2CCC1CC2)c1cccc([N+](=O)[O-])c1 (stereo not given) | inactive: -0.734%
O=C(Nc1ccncc1[N+](=O)[O-])c1ccc([N+](=O)[O-])cc1[N+](=O)[O-] | inactive: 25%
Cc1cc(C)cc(OP(C)(=O)Nc2ccc(SC(F)(F)F)cc2)c1 (stereo not given) | inactive: 3.91%
O=C(COc1ccccc1)OC1CN2CCC1CC2 (stereo not given) | inactive: -3.37%
CP(=O)(NC(=O)Nc1ccccc1)Oc1ccccc1 (stereo not given) | inactive: -0.319%

Structure (SMILES) | activity change, positive = activation
CCc1ccc(OP(C)(=O)N2CCN(c3ccc([N+](=O)[O-])cc3)CC2)cc1 (stereo not given) | inactive: 13%
CP(=O)(Oc1ccccc1)OC(c1ccccc1)C(F)(F)F (stereo not given) | inactive: 3.16%
COP1(=S)c2c(C)nn(CCC#N)c2N=C(c2ccc(F)cc2)N1C (stereo not given) | inactive: -1.6%
Cc1cccc(C)c1OP(C)(=O)Nc1ccc(SC(F)(F)F)cc1 (stereo not given) | inactive: 19.3%
CP(=O)(Nc1ccc(SC(F)(F)F)cc1)Oc1ccc(Cl)cc1 (stereo not given) | inactive: 8.12%
Cc1nc2ccc3ccccc3c2s1.O=[N+]([O-])c1cc([N+](=O)[O-])c(O)c([N+](=O)[O-])c1 | inactive: -13%
O=[As](O)(c1ccccc1Br)c1ccccc1Br | inactive: -4.92%
CC(C)/C=N\N=C(\N)N[N+](=O)[O-] | inactive: -16.7%
CN(C(=O)Cc1ccc(Cl)c(Cl)c1)[C@@H]1CCCC[C@H]1N1CCCC1 | inactive: -8.6%
Clc1n[nH]nc1-c1nn[nH][15n]1 | inactive: -0.846%
CCOP(=O)(Nc1ccc(C)cn1)OCC | inactive: -0.523%
O=[N+]([O-])c1cc([N+](=O)[O-])c(-n2nnc3ccccc32)c([N+](=O)[O-])c1 | inactive: 0.145%
CCOP(=O)(NC(=NC(C)c1ccccc1)NC(C)c1ccccc1)OCC (stereo not given) | inactive: -7.27%
O=P1(Nc2ccccn2)COc2ccccc2OC1 | inactive: 0.382%
CCC1=CC2Cc3nc4ccc(Cl)cc4c(N)c3C(C1)C2 (stereo not given) | inactive: 21.1%
Cc1ccc(OCC(=O)OC2CN3CCC2CC3)cc1 (stereo not given) | inactive: -1.77%
O=[As](O)(c1cccs1)c1cccs1 | inactive: 2.96%
O=P1(Nc2ccc(Br)cn2)COc2ccccc2OC1 | inactive: 2.53%
CCCOc1ccc(NP(C)(=O)Oc2ccc(Cl)cc2)cc1 (stereo not given) | inactive: -7.86%
Nc1cccc([As](=O)(O)c2ccccc2)c1 | inactive: -5.9%
CP(=O)(Nc1ccc(SC(F)(F)F)cc1)Oc1ccccc1 (stereo not given) | inactive: 4.44%
